Source: paper PMC6099588

Assays:
[1] = test system: MLV particles; assay: Western blot of MLV capsid in concentrated HCVpp; conditions: Western blot with anti-capsid MLV antibody, versus HCVpp produced without inhibitors
[2] = test system: HCV E2 glycoprotein; assay: Western blot of E2 glycoprotein incorporated into concentrated HCVpp; conditions: Western blot of 100× concentrated HCVpp
[3] = test system: HCV E2 glycoprotein; assay: Western blot of E2 glycoprotein accumulation in transfected HEK293T cells; conditions: anti-E2 MAb AP33, 48 h post transfection

SMILES	amount of MLV particles [1]	amount of E2 glycoprotein incorporated into HCVpp [2]	accumulation of E2 glycoprotein in HEK293T cells [3]
CC(=O)O[C@H]1[C@H](C)O[C@H](OC[C@H]2O[C@@H](n3ccc(=O)n(C(=O)c4ccccc4)c3=O)[C@@H]3OC(C)(C)O[C@@H]32)C[C@@H]1O[Si](C)(C)C(C)(C)C [Compound 2]	no changes in the amount of MLV particles	no reduction in the amount of the protein	
CC1(C)O[C@@H]2[C@H](O1)[C@@H](CO[C@@H]1C[C@@H](OCc3ccccc3)[C@H](OCc3ccccc3)[C@@H](COCc3ccccc3)O1)O[C@H]2n1ccc(=O)n(C(=O)c2ccccc2)c1=O [Compound 4]	no changes in the amount of MLV particles	no reduction in the amount of the protein	
CC(=O)N[C@H]1[C@@H](O[C@@H]2O[C@H](C[C@@H](O)[C@H]3O[C@@H](n4ccc(=O)[nH]c4=O)[C@H](O)[C@@H]3O)[C@H](O)[C@H](O)[C@H]2NC(=O)/C=C/CCCCCCCCCC(C)C)O[C@H](CO)[C@@H](O)[C@@H]1O [Tunicamycin, reference compound]	no changes in the amount of MLV particles	significant reduction in the amount of E2 glycoprotein incorporated into HCVpp	significant disruption in the accumulation of E2 glycoprotein
